# According to PubChem BioAssay AID2391 (Southern Research Specialized Biocontainment Screening …, 2010):
# This is one part of the list. Entries with a potency or affinity are not part of this list. Some of these compounds have results that are not shown, active ones among them. The source made the active and inactive calls. No rule for the calls is given here.
# Test: inhibition of RSV-induced cytopathic effect – HEp-2 cells, primary 10 µM value included (AID 2391)
# Conditions: at 10 µM, active compounds read high
row,SMILES,CPE inhibition
1,CC(C)N1C(=O)CC2(CCN(CCOC(=O)C(O)(c3ccccc3)c3ccccc3)CC2)C1=O,inactive: 0.12%
2,COc1cc(SC)ccc1C(=O)NCC1(N(C)C)CCCCC1,inactive: 0.51%
3,CCN(CC)CC(C)C(C)OC(=O)C(O)(c1ccccc1)c1ccccc1 (centres undefined),inactive: -0.36%
4,Cc1ccc(C(=O)NCC2(N3CCCCC3)CCCCC2)cc1,inactive: 0.27%
5,O=C(NCC1(N2CCCCC2)CCCCC1)c1cc([N+](=O)[O-])ccc1Cl,inactive: -1.33%
6,CN1[C@@H]2CC[C@H]1CC(OC(=O)C(O)(c1ccccc1)c1ccccc1)C2 (some centres undefined),inactive: -0.33%
7,O=C(NCC1(N2CCCCC2)CCCCC1)c1cc(F)c(F)cc1Cl,inactive: 1.08%
8,C=CCN1CCN(CCOC(=O)C(O)(c2ccccc2)c2ccccc2)CC1,inactive: -0.36%
9,O=C(NCC1(N2CCCCC2)CCCCC1)c1cccc(Br)c1,inactive: -0.02%
10,CCN1CCCC(OC(=O)C2(O)c3ccccc3C=Cc3ccccc32)C1 (centres undefined),inactive: 0.47%
11,Cc1cc(C(=O)NCC2(N3CCCCC3)CCCCC2)ccc1[N+](=O)[O-],inactive: 0.02%
12,COc1ccc(C(=O)NCC2(N(C)C)CCCCC2)cc1,inactive: 4.23%
13,CN(C)c1ccc(C(=O)NCC2(N(C)C)CCCCC2)cc1,inactive: -3.11%
14,CN(C)C1CCCC1OC(=O)C(O)(c1ccccc1)c1ccccc1 (centres undefined),inactive: 1.44%
15,Cc1ccccc1C(=O)NCC1(N2CCCCC2)CCCCC1,inactive: -0.16%
16,COc1ccc(Cl)cc1C(=O)NCC1(N(C)C)CCCCC1,inactive: 2.9%
17,COc1cccc(C(=O)NCC2(N3CCCCC3)CCCCC2)c1,inactive: 1.25%
18,O=C(NCC1(N2CCCCC2)CCCCC1)c1cccc(Cl)c1,inactive: 1.05%
19,CN(C)C1(CNC(=O)c2ccc(Br)cc2)CCCCC1,inactive: -0.42%
20,COc1cc(C(=O)NCC2(N(C)C)CCCCC2)c([N+](=O)[O-])cc1OC,inactive: -0.3%
21,COc1ccc(Br)c(C(=O)NCC2(N3CCCCC3)CCCCC2)c1,inactive: -1.56%
22,CN(C)c1cccc(C(=O)NCC2(N(C)C)CCCCC2)c1,inactive: 0.96%
23,CC(C)Oc1ccc(C(=O)NCC2(N(C)C)CCCCC2)cc1,inactive: 0%
24,O=C(OC1CN2CCC1CC2)C(CO)(c1ccccc1)c1ccccc1 (centres undefined),inactive: -0.71%
